Measured values from patent publication US20100055093A1, “PAN-CELL SURFACE RECEPTOR-SPECIFIC THERAPEUTICS” (RECEPTOR BIOLOGIX INC., priority 2006, published 2010).

Assays:
[1] = test system: Hs578 Bst normal cells; experiment: Monolayer cell proliferation, crystal violet; type: cell-based
Method: (§1) Cell proliferation studies were conducted in either serum containing or in serum-free medium as indicated. Cells were plated in 96-well tissue culture plates (Falcon #35-3075, Becton Dickinson, N.J.) at 2000 to 6000 cells per well, as appropriate for a cell line, and then grown overnight (15 to 18 hrs). For the cell proliferation studies done in serum containing medium, the cells were then treated with or without compounds and allowed to grow for 3 to 5 days. For cell proliferation studies done in serum-free growth conditions. After plating cells in serum, the cells were grown overnight (15 to 20 hrs), then the cells were switched to serum-free medium and grown for 24 to 48 hrs (serum-starvation). […] Cell proliferation was quantified by crystal violet dye method as described previously (Sugarman et al., 1987). Briefly, the culture medium was decanted, the cells washed once with PBS, followed by addition of 50 μl/well 0.5% (w/v) crystal violet dye (Sigma-Aldrich, St Loius, Mo.) in methanol and incubation for 20 min. The plates were washed with water 3-times and then air-dried overnight. The cell-bound dye was eluted with 100 μl/well Sorenson's buffer (25 mM sodium citrate in 50% ethanol) for 15 min on a plate shaker. The plate was then read on a plate reader at 540 nm wavelength for absorbance, which was directly proportional to the amount of cells in the well.

[2] = test system: heregulin (HRG); experiment: 125I-HRG binding with BS3 cross-linking and SDS-PAGE; conditions: 5 nM 125I-HRG, BS3 cross-linking, SDS-PAGE
Method: The binding of HER ECD derivatives to heregulin was performed using a similar assay as described for binding to EGF described in part A above. […] 1 mM of the BS3 crosslinker was added at the end of the binding assay to cross-link the bound molecules. Binding reactions were separated on an SDS-PAGE gel. The protein gel was dried and exposed to a film for 2 and 6 hours.
Binding of radiolabeled EGF to HER1-621/Fc, HER2-650/Fc, HER3-621/Fc, HER4-650/Fc was determined as described above. […] Western blots were probed with anti-His antibody to compare protein levels. […] Radiolabeled HRG binds only to HER3-621/Fc and HER4-650/Fc molecules.

[3] = test system: SUM149 cells; experiment: Growth factor or LPA stimulated cell proliferation in serum-free medium; type: cell-based; conditions: SUM 149 cells
Method: as §1, with “conducted” for “conducted in either serum containing or”, “For cell proliferation studies done in serum-free growth conditions.” left out
The cell proliferation was conducted as described in Example 19. […]

[4] = test system: H2122 cells; experiment: Monolayer cell proliferation, crystal violet; type: cell-based; conditions: H2122, Lung, monolayer culture
[5] = test system: HT-29 cells; experiment: Monolayer cell proliferation, crystal violet; type: cell-based, human; conditions: HT-29, Colon, monolayer culture
[6] = test system: MDA-MB-468 cells; experiment: Monolayer cell proliferation, crystal violet; type: cell-based; conditions: MDA-MB-468, Breast, monolayer culture
[7] = test system: ZR-75-1 cells; experiment: Soft agar colony growth assay; type: cell-based, human
Method: (§2) The soft agar colony growth assays were performed based on the method described by Hudziak et al (1987), except that the assay was done in 24-well plates with 1.5 ml of 0.5% agarose in culture medium with 10% fetal bovine serum as the base layer and the top layer containing the cells was 0.5 ml of 0.25% agarose in 10% fetal bovine serum. Compounds were added to the top layer. The colony growth was allowed to occur at 37° C. in a humidified incubator with 5% CO2 and 95% air. At approximately every 3-days, 50 μl/well sterile water was added to prevent drying. The cell colonies were stained with 1.0 ml/well of 0.001% crystal violet in water overnight at 4° C. The cell colonies were counted using a microscope.

[8] = test system: A549 cells; experiment: Soft agar colony growth assay; type: cell-based, human
Method: as §2

[9] = test system: MCF-7 cells; experiment: Growth factor stimulated cell proliferation in serum-free medium; type: cell-based
Method: as §1, with “conducted” for “conducted in either serum containing or”, “For cell proliferation studies done in serum-free growth conditions.” left out

[10] = test system: N-87 cells; experiment: Monolayer cell proliferation, crystal violet; type: cell-based, human; conditions: N-87, Gastric, monolayer culture
Method: as §1, with “conducted” for “conducted in either serum containing or”, “For cell proliferation studies done in serum-free growth conditions.” left out
as §1

[11] = test system: ZR-75-1 cells; experiment: Monolayer cell proliferation, crystal violet; type: cell-based, human; conditions: ZR-75-1, Breast, monolayer culture
Method: as §1, with “conducted” for “conducted in either serum containing or”, “For cell proliferation studies done in serum-free growth conditions.” left out
as §1

[12] = test system: A549 cells; experiment: Monolayer cell proliferation, crystal violet; type: cell-based, human; conditions: A549, Lung, monolayer culture
Method: as §1, with “conducted” for “conducted in either serum containing or”, “For cell proliferation studies done in serum-free growth conditions.” left out
as §1

[13] = test system: SK-BR-3 cells; experiment: Monolayer cell proliferation, crystal violet; type: cell-based, human; conditions: SK-BR-3, Breast, monolayer culture
Method: as §1, with “conducted” for “conducted in either serum containing or”, “For cell proliferation studies done in serum-free growth conditions.” left out
as §1

RB200h: heterodimer: full length HER 1 ECD linked to full length HER 3 ECD via Fc domain (HER1-621/Fc and HER3-621/Fc with His tag)
inhibition of cell proliferation [1]: no significant inhibition of cell proliferation
binding of 125I-HRG [2]: binds
effect on EGF-stimulated proliferation [3]: completely blocked
effect on LPA stimulated proliferation [3]: completely blocked
RB200 Efficacy (growth inhibition of cells) [4]: − (− = <10%)
RB200 Efficacy (growth inhibition of cells) [5]: − (− = <10%)
RB200 Efficacy (growth inhibition of cells) [6]: ++ (++ = 21 to 30%)
effect on EGF or NRG1β1 stimulated soft agar colony growth [7]: inhibited
effect on EGF or NRG1β1 treated colony growth [8]: did not produce statistically significant inhibition
inhibition of colony growth ([8]; in the absence of growth factors): approximately 65%
effect on NRG1β1 stimulated cell proliferation [9]: completely blocked
RB200 Efficacy (growth inhibition of cells) [10]: − (− = <10%)
RB200 Efficacy (growth inhibition of cells) [11]: + (+ = 10 to 20%)
RB200 Efficacy (growth inhibition of cells) [12]: ++ (++ = 21 to 30%)
RB200 Efficacy (growth inhibition of cells) [13]: +++ (+++ = 31 to 50% growth inhibition of cells by RB200)
